By UniProt entry, the sequences of proteins in these tests, tags left out. Residues count along the entry.
UniProt Q8NDF8, 68-698 isoform Q8NDF8-5: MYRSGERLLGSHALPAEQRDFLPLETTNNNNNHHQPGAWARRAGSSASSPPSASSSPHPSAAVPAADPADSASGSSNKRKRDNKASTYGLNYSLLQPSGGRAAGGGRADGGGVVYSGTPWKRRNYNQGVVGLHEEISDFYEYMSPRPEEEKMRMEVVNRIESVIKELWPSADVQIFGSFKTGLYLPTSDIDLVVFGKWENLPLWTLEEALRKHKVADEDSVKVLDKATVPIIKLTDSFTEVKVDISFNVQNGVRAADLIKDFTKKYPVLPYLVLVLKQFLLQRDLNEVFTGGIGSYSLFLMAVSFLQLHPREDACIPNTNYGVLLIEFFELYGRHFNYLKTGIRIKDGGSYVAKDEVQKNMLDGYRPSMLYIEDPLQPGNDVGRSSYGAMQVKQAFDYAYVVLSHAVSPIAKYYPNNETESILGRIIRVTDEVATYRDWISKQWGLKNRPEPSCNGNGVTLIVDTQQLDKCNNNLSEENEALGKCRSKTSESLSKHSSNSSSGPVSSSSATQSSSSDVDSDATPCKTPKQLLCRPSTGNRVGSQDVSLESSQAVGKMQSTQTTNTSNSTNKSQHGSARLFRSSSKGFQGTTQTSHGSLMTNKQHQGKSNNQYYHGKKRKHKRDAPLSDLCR

In US12171755B2, “PAPD5 inhibitors and methods of use thereof” (Children's Medical Center Corporation, priority 2017, dated 2024):

Target: T1, PAPD5 (Homo sapiens, UniProt Q8NDF8)
T1 construct: made in house
Assay: High-throughput luminescence (KinaseGlo) RNA polyadenylation assay, ATP utilization by recombinant PAPD5
Format: biochemical

COc1cc(C(=O)NC2CCN(C)CC2)ccc1Nc1ncc2c(n1)N(C1CCCCC1)CCC(=O)N2C [Entry 64, 4-[(9-cyclohexyl-5-methyl-6-oxo-7,8-dihydropyrimido[4,5-b][1,4]diazepin-2-yl)amino]-3-methoxy-N-(1-methylpiperidin-4-yl)benzamide]
Fold-change determined at compound concentration 33 μM: 1.099 | Fold-change determined at compound concentration 100 μM: 1.272
